The target of assay [1] is human adenosine A2b receptor (Homo sapiens, UniProt P29275). Nature of the assay: Adenosine A2b receptor reporter gene assay (luciferase, CHO-A2b cells). The conditions noted are these: read-out: KB value in the reporter gene assay; CHO cells transfected with human A2b receptor and pCRE-LUCI; NECA as agonist; KB from shift of the curve at 100 nM or 1 μM antagonist. On the technique in general: Reporter assays use an easily measured gene product as a stand-in for the process of interest.

Chains of the proteins cited; added tags and fusions are not shown.
UniProt P29275, whole entry: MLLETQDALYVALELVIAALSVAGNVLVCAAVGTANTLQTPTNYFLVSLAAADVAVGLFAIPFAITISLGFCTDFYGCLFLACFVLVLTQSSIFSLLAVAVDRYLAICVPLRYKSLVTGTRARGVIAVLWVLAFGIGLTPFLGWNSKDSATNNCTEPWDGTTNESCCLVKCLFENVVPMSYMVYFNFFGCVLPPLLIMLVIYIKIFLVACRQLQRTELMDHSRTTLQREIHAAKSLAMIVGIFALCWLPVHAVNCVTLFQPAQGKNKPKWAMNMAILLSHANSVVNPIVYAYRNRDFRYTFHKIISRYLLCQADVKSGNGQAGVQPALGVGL
UniProt P0DMS8, whole entry: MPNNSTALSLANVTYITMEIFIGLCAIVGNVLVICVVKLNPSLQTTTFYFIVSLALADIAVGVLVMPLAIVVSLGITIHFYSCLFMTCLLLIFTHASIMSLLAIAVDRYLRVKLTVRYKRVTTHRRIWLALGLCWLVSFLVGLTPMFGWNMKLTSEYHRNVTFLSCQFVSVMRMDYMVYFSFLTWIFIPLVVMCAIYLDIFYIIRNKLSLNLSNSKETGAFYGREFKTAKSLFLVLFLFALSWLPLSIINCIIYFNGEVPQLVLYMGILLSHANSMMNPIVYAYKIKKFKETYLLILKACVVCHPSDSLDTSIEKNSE

Another assay addresses adenosine A3 receptor (Homo sapiens, UniProt P0DMS8). The conditions noted are these: read-out: KI value in adenosine A3 receptor assay; assay as described in WO 99/64418.

`Cc1ccc(C(=O)Nc2nc(-c3cccc(C#N)c3)c(-n3cncn3)s2)s1`: in assay [1], the antagonist dissociation constant (Kb) (usually the affinity of an antagonist, worked out from how it opposes an agonist) came out at 24 nM. Turning to `Fc1cccc(-c2nc(Nc3ccncc3)sc2-n2cncn2)c1`, the Ki (as a rule, the equilibrium dissociation constant of an inhibitor or competing ligand from its target) at adenosine A3 receptor was found to be 22 nM. For `COc1cccc(Nc2nc(-c3cccc(C#N)c3)c(-n3cncn3)s2)n1`, the inhibition constant Ki on adenosine A3 receptor stood at 11.5 nM.

Take `N#Cc1cccc(-c2nc(Nc3ccncc3)sc2-n2ccnc2)c1`: the Kb in assay [1] stood at 26.5 nM.
